Biological target: Amine oxidase [flavin-containing] B (Homo sapiens, UniProt P27338)
Experiment: Inhibition of human recombinant MAO-B expressed in baculovirus infected insect cell microsomes assessed as p-tyramine conversion to resorufin and H2O2 after 15 mins by fluorimetric assay

Sequences of proteins named here, by UniProt entry; tags and fusion partners are left off.
UniProt P27338, whole entry: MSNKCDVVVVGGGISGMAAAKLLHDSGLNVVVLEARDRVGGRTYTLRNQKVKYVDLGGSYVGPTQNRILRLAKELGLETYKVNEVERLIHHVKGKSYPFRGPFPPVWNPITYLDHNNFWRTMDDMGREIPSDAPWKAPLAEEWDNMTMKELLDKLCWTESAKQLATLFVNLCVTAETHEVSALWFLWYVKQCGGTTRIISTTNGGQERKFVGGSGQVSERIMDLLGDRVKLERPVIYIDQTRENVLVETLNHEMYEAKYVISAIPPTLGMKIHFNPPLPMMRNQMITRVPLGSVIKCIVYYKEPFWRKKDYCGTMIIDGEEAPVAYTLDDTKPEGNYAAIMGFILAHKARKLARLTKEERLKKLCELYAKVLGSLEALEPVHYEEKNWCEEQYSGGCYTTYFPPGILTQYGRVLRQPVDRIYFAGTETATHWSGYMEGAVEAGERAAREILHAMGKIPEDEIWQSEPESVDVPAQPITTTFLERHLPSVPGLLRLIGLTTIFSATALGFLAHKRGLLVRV

SMILES	IC50 [nM]
O=C(Nc1cccc(C(F)(F)F)c1)c1cc2ccccc2oc1=O	3300
Cc1cccc(NC(=O)c2cc3ccccc3oc2=O)c1	930
